Test results taken from patent US6358492B1, “Dopamine transporter imaging ligand” (Research Triangle Institute, priority 1997, dated 2002).

Molecular target: dopamine transporter (UniProt P23977)
Format: binding
Parameters: other: relative to cocaine
Conditions: relative to cocaine

COC(=O)C1C(OC(=O)c2ccccc2)CC2CCC1N2C (stereo not shown) [6 allococaine, allococaine, reference compound]
times less potent than cocaine at the DAT: 60 times
